By IC50 is commonly meant the concentration that gives 50% inhibition.

Sequences of proteins named here, by UniProt entry; tags and fusion partners are left off.
UniProt P30411, whole entry: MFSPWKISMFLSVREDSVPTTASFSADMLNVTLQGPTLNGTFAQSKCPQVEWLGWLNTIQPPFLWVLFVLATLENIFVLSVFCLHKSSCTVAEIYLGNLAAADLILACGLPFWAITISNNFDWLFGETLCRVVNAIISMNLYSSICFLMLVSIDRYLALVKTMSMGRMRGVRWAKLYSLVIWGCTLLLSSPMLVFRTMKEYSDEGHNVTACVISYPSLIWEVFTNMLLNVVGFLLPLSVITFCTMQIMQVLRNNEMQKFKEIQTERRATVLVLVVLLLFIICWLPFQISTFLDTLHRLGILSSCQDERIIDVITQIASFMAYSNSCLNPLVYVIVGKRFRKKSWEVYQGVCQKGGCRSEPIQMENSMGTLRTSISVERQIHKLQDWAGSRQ

The target of this test is hB2 receptor (Homo sapiens, UniProt P30411). The experiment in a line: In vitro Assay of hB2 Receptor Function using Calcium Flux. In kind it is cell-based. The settings on record: read-out: Data (um), recombinant CHO cells, antagonist IC50 against agonist at EC80.

Consider `Cc1ccc(S(=O)(=O)N2C=CNC(=O)[C@H]2CC(=O)NC2CCCCC2(C)O)cc1` (some centres unmarked), for which the IC50 came to 420 nM. For the molecule `Cc1ccc(S(=O)(=O)N2C=CNC(=O)[C@H]2CC(=O)N2CCC(c3ccc(C(F)(F)F)cc3)CC2)cc1`, the IC50 amounted to 850 nM.
